Measured values reported in ChEMBL document CHEMBL1138339, “Novel, orally effective cyanide antidotes” (2007).

Experiments:
Mus musculus [1] = test: Protection against cyanide-induced toxicity in mouse assessed as survival at 1.45 mmol/kg, po administered 30 mins before cyanide treatment
Mus musculus [2] = test: Protective index ratio, Recovery time for protection against cyanide-induced toxicity in mouse at 1.45 mmol/kg, po administered 30 mins before cyanide treatment over cyanide-induced toxicity in control
Mus musculus [3] = test: Protection against cyanide-induced toxicity in mouse assessed as survival at 0.29 mmol/kg, ip administered 5 mins before cyanide treatment
Mus musculus [4] = test: Protection against cyanide-induced toxicity in mouse assessed as survival at 0.29 mmol/kg, ip administered 5 mins after cyanide treatment
Mus musculus [5] = test: Protective index ratio, Recovery time for protection against cyanide-induced toxicity in mouse at 0.29 mmol/kg, ip administered 5 mins before cyanide treatment over cyanide-induced toxicity in control
Mus musculus [6] = test: Protective index ratio, Recovery time for protection against cyanide-induced toxicity in mouse at 0.29 mmol/kg, ip administered 5 mins after cyanide treatment over cyanide-induced toxicity in control
Mus musculus [7] = test: Protection against cyanide-induced toxicity in mouse assessed as survival at 1.45 mmol/kg, po administered 60 mins before cyanide treatment
Mus musculus [8] = test: Protective index ratio, Recovery time for protection against cyanide-induced toxicity in mouse at 1.45 mmol/kg, po administered 60 mins before cyanide treatment over cyanide-induced toxicity in control

O=C([O-])[C@@]1(O)CS[C@](O)(C(=O)[O-])CS1.[Na+].[Na+]
Survival (Mus musculus [1]): 100% | Ratio (Mus musculus [2]): 4

CCOC(=O)[C@@]1(O)CS[C@](O)(C(=O)OCC)CS1
Survival (Mus musculus [1]): 100% | Survival (Mus musculus [3]): 100% | Survival (Mus musculus [4]): 100% | Ratio (Mus musculus [2]): 4.6 | Ratio (Mus musculus [5]): 7.6 | Ratio (Mus musculus [6]): 3.9

CCOC(=O)/C(=C/SC(C)=O)OC(C)=O
Survival (Mus musculus [1]): 100% | Survival (Mus musculus [3]): 100% | Survival (Mus musculus [4]): 100% | Ratio (Mus musculus [2]): 5.4 | Ratio (Mus musculus [5]): 6.4 | Ratio (Mus musculus [6]): 2.3

CCOC(=O)C1(CS)N[C@H](C(=O)O)CS1 (stereo not given in full)
Survival (Mus musculus [1]): 100% | Survival (Mus musculus [7]): 100% | Survival (Mus musculus [3]): 100% | Survival (Mus musculus [4]): 100% | Ratio (Mus musculus [2]): 2.1 | Ratio (Mus musculus [8]): 2 | Ratio (Mus musculus [5]): 1.6 | Ratio (Mus musculus [6]): 1.4

CC(=O)O/C(=C\SC(C)=O)C(=O)O
Survival (Mus musculus [1]): 100% | Survival (Mus musculus [7]): 100% | Survival (Mus musculus [3]): 100% | Survival (Mus musculus [4]): 100% | Ratio (Mus musculus [2]): 2.8 | Ratio (Mus musculus [8]): 2.1 | Ratio (Mus musculus [5]): 7.6 | Ratio (Mus musculus [6]): 1.7
